Test results: publication PMC7380959 (Science Advances, 2020)

Biological target: H77 E1E2 (full-length E1E2, wild type) (Hepatitis C virus genotype 1a, isolate …)
Assay: ELISA

B1: AR3C IgG (antibody, V domains shown)
VH: VQLLEQSGAEVKKPGSSVKVSCETSGGTFDNYALNWVRQAPGQGLEWIGGVVPLFGTTRNAQKFQGRVTISDDKSTGTGHMELRSLRSEDTAVYYCVRSVTPRYCGGGFCYGEFDYWGQGTLVTVSS
VL: EIELTQSPATLSVSPGERATLSCRASQSVSSNLAWYQQKPGQAPRLLIYGASTRATGIPARFSGSGSGTEFTLTVSRLEPEDSAVYFCQQYYRSPLTFGGGTKVEIK
  binding result: binds
